Data set [1] is described as follows: Extraction of isobutanol from an aqueous solution by ionic liquid (HPLC). It is filed as physicochemical. Particulars: isobutanol in aqueous solution after mixing 3 mL of about 31 g/L isobutanol with 150 microliters (5 vol %) ionic liquid, overnight equilibration; control 436. The method, then:
(§1) The extraction of ethanol and isobutanol from an aqueous solution by the ionic liquids used in Examples 1˜8 was evaluated. 3 mL of an aqueous solution containing about 31 g/L of ethanol or isobutanol was mixed with 150 microliters (5 vol %) of the indicated ionic liquid in an airtight vial with minimal headspace. Ethanol and isobutanol concentration in the solution was measured using HPLC as described above following thorough mixing and overnight equilibration of the contents of the vial.
(§2) The amount of alcohol extracted to the ionic liquid phase was calculated as a percentage of the amount of alcohol remaining in the solution in the control, which had no ionic liquid phase but was processed experimentally under the same conditions. In some cases, about 3˜13% of isobutanol was extracted even though only 5% (V/V) of ionic liquid was used as the second phase.

Data set [2] can be described thus: Extraction of ethanol from an aqueous solution by ionic liquid (HPLC). It is filed as physicochemical. Particulars: ethanol in aqueous solution after mixing 3 mL of about 31 g/L ethanol with 150 microliters (5 vol %) ionic liquid, overnight equilibration; control 655. The method, then:
as §1, §2

For the substance “1-Ethyl-3-methylimidazolium levulinate [Example 1]”, in data set [1], the mM isobutanol is recorded as 415 mM. The “mM Ethanol” value in data set [2] was determined as 628 mM.

For the origin of these results see patent US20100143995A1, “Process for Fermentive Preparation of Alcohols and Recovery of Product” (E. I. DU PONT DE NEMOURS AND COMPANY, priority 2008, published 2010).
